This passage reports Solubility in water results from patent US20130059818A1, “CARBOSILANE DENDRIMERS AND THE USE THEREOF AS ANTIVIRAL AGENTS” (UNIVERSIDAD DE ALCALA DE HENARES (UAH), priority 2010, published 2013).

The data set can be described thus: Solubility in water. As to conditions: qualitative, as isolated.

For `COC(=O)CCN(CCC[Si](C)(C)CCC[Si](C)(CCC[Si](C)(C)CCCN(CCC(=O)OC)CCC(=O)OC)CCC[Si](C)(CCC[Si](C)(CCC[Si](C)(C)CCCN(CCC(=O)OC)CCC(=O)OC)CCC[Si](C)(C)CCCN(CCC(=O)OC)CCC(=O)OC)CCC[Si](CCC[Si](C)(CCC[Si](C)(CCC[Si](C)(C)CCCN(CCC(=O)OC)CCC(=O)OC)CCC[Si](C)(C)CCCN(CCC(=O)OC)CCC(=O)OC)CCC[Si](C)(CCC[Si](C)(C)CCCN(CCC(=O)OC)CCC(=O)OC)CCC[Si](C)(C)CCCN(CCC(=O)OC)CCC(=O)OC)(CCC[Si](C)(CCC[Si](C)(CCC[Si](C)(C)CCCN(CCC(=O)OC)CCC(=O)OC)CCC[Si](C)(C)CCCN(CCC(=O)OC)CCC(=O)OC)CCC[Si](C)(CCC[Si](C)(C)CCCN(CCC(=O)OC)CCC(=O)OC)CCC[Si](C)(C)CCCN(CCC(=O)OC)CCC(=O)OC)CCC[Si](C)(CCC[Si](C)(CCC[Si](C)(C)CCCN(CCC(=O)OC)CCC(=O)OC)CCC[Si](C)(C)CCCN(CCC(=O)OC)CCC(=O)OC)CCC[Si](C)(CCC[Si](C)(C)CCCN(CCC(=O)OC)CCC(=O)OC)CCC[Si](C)(C)CCCN(CCC(=O)OC)CCC(=O)OC)CCC(=O)OC`, the Solubility in water entry was “insoluble in water”.
